Experimental data reported in US8835501B2, “Pharmaceutical formulations of HDAC inhibitors” (TopoTarget UK Limited, priority 2005, dated 2014).

Assay: Solubility enhancement with cyclodextrins (saturated PXD-101 samples; HP-β-CD phase solubility)
Assay type: physicochemical
Description: Saturated samples of PXD-101 were prepared in aqueous solutions of two natural cyclodextrins (α-CD and γ-CD) and hydroxypropyl derivatives of the α, β and γ cyclodextrins (HP-α-CD, HP-β-CD and HP-γ-CD). […] HP-β-CD offers the best solubility enhancement for PXD-101. […] The calculated saturated solubilities of the complexed HDACi were plotted against the concentration of cyclodextrin. […] This type of phase solubility diagram for cyclodextrins is referred to as an A-Type phase solubility plot. […] This deviation may be due to experimental error caused by the decision to use of mass, instead of volume, to dispense the more concentrated cyclodextrin samples due to their viscosity. Alternatively, it is possible that there is a slight deviation from the linear A-Type phase solubility behaviour.

Substance: Hydroxypropyl-γ-cyclodextrin [HP-γ-CD]
- Solubility Enhancement (of PXD-101): 50
